One compound from ChEMBL document CHEMBL4303097, “In vitro screening of a FDA approved chemical library reveals potential inhibitors of SARS-CoV-2 replication” (2020) can be followed below.

This is a selection; strong and weak results do not stand in their true shares.

This assay deals with SARS-CoV-2. The assay can be described thus: Inhibition of cell viability relative to arbidol control (inhibition index > 1 indicates higher activity) measured by fluorescence (OD590nm) in Vero E6 cells infected with SARS-CoV-2 (strain BavPat1) at MOI 0.002 after 72hrs. The format is functional, Chlorocebus sabaeus, Vero C1008.
With `COc1ccc(C[C@H](C)NC[C@@H](O)c2ccc(O)c(NC=O)c2)cc1.COc1ccc(C[C@H](C)NC[C@@H](O)c2ccc(O)c(NC=O)c2)cc1.O=C(O)/C=C/C(=O)O`, the Inhibition index was 1.445.
